Target: T1, human estrogen receptor β-GST fusion protein (ER-β) (Homo sapiens, UniProt Q92731)
T1 construct: made in house; host or cells: Escherichia coli BL21
Assay: Assay of ligand using coactivator SRC1-bound plate, ER-β
Format: biochemical
Details: HRP-labeled anti-GST antibody, 450 nm, FIG. 6

Protein sequences, listed by entry. Tags and fused reporters are not part of them. Residues count along the entry.
UniProt Q92731, 264-498 limits assumed: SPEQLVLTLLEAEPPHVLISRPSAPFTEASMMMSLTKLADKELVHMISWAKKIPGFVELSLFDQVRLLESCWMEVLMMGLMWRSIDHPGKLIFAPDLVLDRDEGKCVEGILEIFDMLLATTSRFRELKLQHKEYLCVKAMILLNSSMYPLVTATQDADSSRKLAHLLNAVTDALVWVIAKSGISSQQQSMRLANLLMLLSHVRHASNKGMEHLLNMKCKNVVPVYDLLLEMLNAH

Structure (SMILES): C[C@]12CC[C@@H]3c4ccc(O)cc4CC[C@H]3[C@@H]1CC[C@@H]2O [17 β-estradiol]
- OD (binding of receptor to immobilized coactivator), agonist mode: increase in OD was observed
